Molecular target: VEGF (4 ng/mL, added in the in vitro angiogenesis assay) (UniProt P15692-4 27-191, limits assumed)
Assay: cell-based or functional assay

Protein sequences, listed by entry. Tags and fused reporters are not part of them. Chains listed by the source or under a name are the forms on record and can include a tag or linker.
UniProt P15692, other isoform, or with tags, fused parts or gaps limits assumed: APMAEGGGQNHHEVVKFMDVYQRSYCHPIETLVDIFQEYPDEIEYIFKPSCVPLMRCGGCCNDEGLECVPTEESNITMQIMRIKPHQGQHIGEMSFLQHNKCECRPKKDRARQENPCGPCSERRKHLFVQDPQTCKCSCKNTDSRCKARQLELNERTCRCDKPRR

B1: Reference antibody (Genentech/Roche), Ranibizumab (Fab, V domains shown)
VH: EVQLVESGGGLVQPGGSLRLSCAASGYDFTHYGMNWVRQAPGKGLEWVGWINTYTGEPTYAADFKRRFTFSLDTSKSTAYLQMNSLRAEDTAVYYCAKYPYYYGTSHWYFDVWGQGTLVTVSS
VL: DIQLTQSPSSLSASVGDRVTITCSASQDISNYLNWYQQKPGKAPKVLIYFTSSLHSGVPSRFSGSGSGTDFTLTISSLQPEDFATYYCQQYSTVPWTFGQGTKVEIKR
With B1 the “IC50, average value (in vitro angiogenesis, HUVEC/NHDF co-culture)” value was 47.6 µg/mL, the “IC50, branching points (in vitro angiogenesis, HUVEC/NHDF co-culture)” value was 37.5 µg/mL and the “IC50, length of the tubes (in vitro angiogenesis, HUVEC/NHDF co-culture)” value was 57.6 µg/mL.
